The test system of the assay is Granzyme B expression and IFNγ production.

In the case of `CC1CCN(C(=O)CC#N)CC1N(C)c1ncnc2[nH]ccc12` (centres unmarked) [tofacitinib], the “IL-15-induced LAK cell Granzyme B expression and IFNγ production” value is listed as “inhibit”.
The value for tofacitinib was “inhibits”.
